Earlier results on one substance are cited in patent publication US7161029B2, “DiL-lysine monosulfate trihydrate crystal and method of making” (Ajinomoto Co., Inc., priority 2003, dated 2007).

For the data set the following is noted: known from the art; cited from earlier work.

Turning to anhydrous diL-lysine sulfate, the solubility in water entry was “highly soluble”.
